Data taken from PubChem BioAssay AID1347428 (National Center for Advancing Translational Sciences (NCATS), 2020).
This is a selection; strong and weak results do not stand in their true shares. Inconclusive results are not listed. Activity calls are given as the source filed them. Calls come from the whole dose curve; as a rule, active = well fitted inhibition curve with a large enough effect; inconclusive = small, poorly fitted or top-dose-only effect; inactive = no such curve, though single readings can be large or run the other way.

Sequences of proteins named here, by UniProt entry; tags and fusion partners are left off.
UniProt Q9GZX7, whole entry: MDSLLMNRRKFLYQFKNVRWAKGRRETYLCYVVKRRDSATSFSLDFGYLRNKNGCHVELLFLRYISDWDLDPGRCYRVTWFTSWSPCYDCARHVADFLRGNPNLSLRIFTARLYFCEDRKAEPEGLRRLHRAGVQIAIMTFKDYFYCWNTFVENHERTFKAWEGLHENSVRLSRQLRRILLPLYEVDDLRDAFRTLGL

biological target: Single-stranded DNA cytosine deaminase (Homo sapiens) (UniProt Q9GZX7); assay: Primary qHTS assay for inhibitors of Activation Induced Cytidine Deaminase (AID): AID signal; settings: AID deamination FRET fluorescence, UDG-coupled, 4 h; at 115 µM (top of the series); note: nearly all actives have a fitted effect of over 25% in size
Description: Assay Provider (PI) Patricia Gearhart Ph.D.
National Institute on Aging
National Institute of Health (NIH), Bethesda, MD
Assay Provider (PI) Rahul Kohli Ph.D.
Perelman School of Medicine
University of Pennsylvania, Philadelphia, PA
Activation-Induced Deaminase (AID) is a cytosine deaminase which converts cytosine into uracil within stretches of ssDNA. The presence of uracil in DNA initiates a cascade of mutagenic DNA repair to introduce point mutations and DNA double strand breaks. Specific targeting of AID to the immunoglobulin heavy chain loci (Igh) promotes mutagenesis in the antibody variable region for somatic hypermutation (SHM) or switch regions leading to class switch recombination (CSR). However, AID also plays a role in accumulating unnecessary mutations across the genome. Mis-targeting of AID results in the initiation of tumor development and leads to greater drug resistance among cancer cells when continually expressed. To identify an AID inhibitor, a small molecule library will be screened in collaboration with NCATS core facility at NIH. To confirm biological function, inhibitors will be examined in an in vitro murine B-cell activation assay and subsequent secondary validation screens. Top molecules will be further screened to identify inhibitory efficacy against a wild type primary splenocytes assay. Using these approaches, we hope to identify a small molecule with great efficacy and low toxicity for use as a molecular probe to further characterize AID's intricacies, or even as a therapeutic.
A FRET based analysis of cytosine deamination, was developed to identify potential inhibitors of AID catalytic activity. This screen has two signal output, Read 1 evaluates the AID inhibition response. The second readout (Read 2) evaluates UDG response and is uses as a counterscreen to exclude false positive inhibitors. Inhibition in AID and inactivity in the UDG signal is the desired outcome for this assay.
SEQUENCE No. (e.g., 1, 2, 3, etc.); […] (e.g., Cells, Incubation, Reagent, etc.); VALUE; DESCRIPTION
1a; Reagent; 3 uL; [4/3x] 1 uM AID/2.67 U/mL UDG
1b; Reagent; 3 uL; 2 U/mL UDG
1c; Reagent; 3 uL; 1 uM AID
2a; Compound; 46 nL; Follow-up plates (0.64 uM - 10 mM)
2b; Control; 46 nL; ATA ([…] - 10 mM)
3; Time; 10 min; incubation at room temperature
5; Time; 4 hr; incubation at room temperature
6; Reagent; 4 uL; [2x] 250 mM NaOH
7; Time; 15 sec; centrifuge at 1000 rpm
8; Time; 30 min; incubation at room temperature
9a; Detection; fluorescence (Read 1: AID); EnVision (PerkinElmer) plate reader, 540 excitation and 590 emission filters
9b; Detection; fluorescence (Read 2: UDG); EnVision (PerkinElmer) plate reader, 560 excitation and 665 emission filters
NOTES (numbers refer to sequence above)
1a; Reagents were dispensed in a medium-binding black solid-bottom Greiner plates (789176F) using a BioRptr liquid dispenser. Dispense 3 uL of [4/3x] 1 uM AID (provided by Kohli lab) and [4/3x] 2 U/mL UDG (NEB M0280L) into columns 1, 2, 5 to 48.
1b; Dispense 3 uL of [4/3x] 2 U/mL UDG into column 3.
1c; Dispense 3 uL of [4/3x] 1 uM AID into column 4.
2a; Compound (7-points [uM] (0.64; 3.2; 16; 80; 400; 2,000; 10,000; 20,000) double pin-transferred (Dip Factor = 2) using the Kalypsys (Wako USA) pintool equipped with a 1536 pinhead for a final concentration range of 7.32 nM - 114 uM.
2b; 10 mM Aurintricarboxylic Acid (Sigma A1895) (ATA, 8-point, n = 2, 1:2.5 dilution in column 2) double pin-transferred (Dip Factor = 2) using the Kalypsys (Wako USA) pintool equipped with a 1536 pinhead for a [final] range of 186 nM - 114 uM.
3; Room temperature incubation.
4; Dispense 1 uL of substrate mixture from the Kohli lab [4x] […] DJC20 and [4x] 250 nM DJC23 into columns 1 to 48 .
5; Room temperature incubation.
6; Dispense 4 uL of substrate mixture [2x] 250 mM NaOH into columns 1 to 48.
7; Centrifugation step to remove bubbles.
8; Room temperature incubation
9a; Fluorescence signal (column label AID) was read using the EnVision plate reader. […]
% is set by controls: 0 for no effect and ±100 for the full control effect.

SMILES	activity change, negative = inhibition
O=C(NCC1(N2CCCCC2)CCCCC1)c1c[nH]c2ccccc12	inactive: -20.9%
O=C(NCC1(N2CCOCC2)CCCCC1)c1ccc(Cl)cc1	inactive: -27.5%
COc1ccccc1C(=O)NCC1(N2CCOCC2)CCCCC1	inactive: 11.7%
CC1CN(CCc2ccccc2)CCC1=O (stereo not drawn)	inactive: 2.92%
Fc1ccc(CN2CCC(Nc3ccccc3Cl)CC2)cc1	inactive: -14.4%
COc1ccccc1C(=O)NCC1(N(C)C)CCCCC1	inactive: 2.41%
CCCCOc1ccccc1C(=O)NCC1(N2CCOCC2)CCCCC1	inactive: -22.3%
O=C(NCC1(N2CCOCC2)CCCCC1)c1ccccc1Br	inactive: -9.92%
CCCOc1cccc(C(=O)NCC2(N3CCOCC3)CCCCC2)c1	inactive: 1.9%
CCc1cc(C(=O)NCC2(N3CCOCC3)CCCCC2)sc1C	inactive: -7.81%
CCOc1ccc(C(=O)NCC2(N3CCOCC3)CCCCC2)cc1	inactive: 6.19%
O=C(NCC1(N2CCOCC2)CCCCC1)c1ccccc1	inactive: 59.7%
O=C(NCC1(N2CCOCC2)CCCCC1)c1ccc([N+](=O)[O-])cc1	inactive: -1.64%
CC1C(=O)CCN(CCc2ccccc2)C1C (stereo not drawn)	inactive: -0.157%
O=C(NCC1(N2CCOCC2)CCCCC1)c1ccccc1[N+](=O)[O-]	inactive: -13.4%
Cc1cc(NC2CCN(Cc3ccccc3)CC2)ccc1Br	inactive: 1.21%
COc1cc(C(=O)NCC2(N3CCOCC3)CCCCC2)cc(OC)c1OC	inactive: -11.3%
CCCOc1ccc(C(=O)NCC2(N(C)C)CCCCC2)cc1	inactive: -2.31%
CC(C)(C)c1ccc(C(=O)NCC2(N3CCOCC3)CCCCC2)cc1	inactive: -17.5%
CC1CN(CCc2ccccc2)C(C)CC1=O (stereo not drawn)	inactive: 5.21%
Cc1ccccc1C(=O)NCC1(N(C)C)CCCCC1	inactive: -6.19%
CN(C)C1(CNC(=O)c2cc3c(s2)CCC3)CCCCC1	inactive: -19.1%
CN(C)C1(CNC(=O)c2ccc(C(C)(C)C)cc2)CCCCC1	inactive: -7.32%
